The values that follow come from PMC3069143 (Analytical chemistry, 2011).

Each structure is given as a SMILES string.

One data set concerns human hepatic cell lines. As to conditions: ref Table S2 (SI); cited from earlier work.
For a further data set, the system named is Calf thymus ds-DNA. Particulars: 0.2 mM substrate; either RLE or HLE; NADPH regenerating system.

For `O=NN1CCCC1` [NPYR, N-nitrosopyrrolidine], the “Comet assay OTM/conc.” value in the data set on human hepatic cell lines was “small”. Moreover, the “ECL produced relative to styrene” value in the data set on Calf thymus ds-DNA is on record as 2–3 times.
